Laboratory results taken from PubChem BioAssay AID1259371 (The Scripps Research Institute Molecular Screening Center, 2018).

The chains behind the UniProt entries cited, without tags or fusion partners.
UniProt O75030, whole entry: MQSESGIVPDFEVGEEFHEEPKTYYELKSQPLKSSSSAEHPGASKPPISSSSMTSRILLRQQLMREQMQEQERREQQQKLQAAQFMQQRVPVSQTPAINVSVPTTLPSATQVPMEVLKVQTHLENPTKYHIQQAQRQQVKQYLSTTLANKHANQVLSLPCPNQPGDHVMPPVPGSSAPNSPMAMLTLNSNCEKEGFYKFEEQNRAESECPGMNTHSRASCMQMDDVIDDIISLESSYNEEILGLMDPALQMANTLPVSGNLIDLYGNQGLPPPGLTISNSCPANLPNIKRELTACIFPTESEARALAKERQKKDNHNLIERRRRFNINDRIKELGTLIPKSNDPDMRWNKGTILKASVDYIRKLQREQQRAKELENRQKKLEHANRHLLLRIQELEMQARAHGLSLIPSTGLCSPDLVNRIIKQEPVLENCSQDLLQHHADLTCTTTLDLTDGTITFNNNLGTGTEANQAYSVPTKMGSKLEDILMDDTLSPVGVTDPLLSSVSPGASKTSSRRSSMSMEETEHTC

Target: Microphthalmia-associated transcription factor (Homo sapiens) (UniProt O75030)
Test: compounds blocking human MITF signal – biochemical, AlphaScreen, dose response (AID 1259371)
Details: AlphaScreen biochemical MITF assay, signal inhibition

O=[N+]([O-])c1cc2[nH]c3cc([N+](=O)[O-])c([N+](=O)[O-])cc3c2cc1[N+](=O)[O-]
IC50: 0.469 µM
